The assay can be described thus: Displacement of radioligand [3H]- DAMGO on Opioid receptor mu 1 in monkey brain membranes.

Usually Ki stands for a dissociation constant, usually derived from enzyme kinetics or from competition with a known ligand.

As for `COc1ccc2c3c1O[C@H]1C(=O)CC[C@@]4(NC(=O)/C=C/c5ccc(Cl)cc5)[C@@H](C2)N(CC2CC2)CC[C@]314` [1N-[4-cyclopropylmethyl-10-methoxy-14-oxo-(13R)-12-oxa-4-azapentacyclo[9.6.1.01,13.05,17.07,18]octadeca-7,9,11(18)-trien-17-yl]-3-(4-chlorophenyl)-(E)-2-propenamide], the Ki stood at 0.46 nM.

These data come from BindingDB's records for doi:10.1021/jm0009641 (University of Bristol, 2000).
